Assay results published in US10308645B2, “Piperidine oxadiazole and thiadiazole orexin receptor antagonists” (MERCK SHARP & DOHME CORP., priority 2014, dated 2019).

Molecular target: hOX1R (orexin-1 receptor) (Homo sapiens, UniProt O43613)
Experiment: FLIPR Ca2+ Flux Assay, hOX1R
Format: cell-based

C[C@@H]1CC[C@@H](c2nsc(C(C)(C)O)n2)CN1C(=O)c1cccnc1OCC(F)(F)F [Example 38, 2-{3-[(3R,6R)-6-methyl-1-{[2-(2,2,2-trifluoroethoxy)pyridin-3-yl]carbonyl}piperidin-3-yl]-1,2,4-thiadiazol-5-yl}propan-2-ol]
IC50: > 10 µM
